# Literature values in US10039825B2, “Combination therapy with CD4 lymphocyte depletion and MTOR inhibitors” (Cedars-Sinai Medical Center, priority 2010, dated 2018).
# Tested on: metastatic RCC
# Details: cited from earlier work
substance,measurement,value
"interleukin-2: high dose immune cytokine, standard treatment for metastatic RCC",patients with complete responses,5-10%
